{"sequences": {"note": "By UniProt entry, the sequences of proteins in these tests, tags left out.", "UniProt P29597, whole entry": "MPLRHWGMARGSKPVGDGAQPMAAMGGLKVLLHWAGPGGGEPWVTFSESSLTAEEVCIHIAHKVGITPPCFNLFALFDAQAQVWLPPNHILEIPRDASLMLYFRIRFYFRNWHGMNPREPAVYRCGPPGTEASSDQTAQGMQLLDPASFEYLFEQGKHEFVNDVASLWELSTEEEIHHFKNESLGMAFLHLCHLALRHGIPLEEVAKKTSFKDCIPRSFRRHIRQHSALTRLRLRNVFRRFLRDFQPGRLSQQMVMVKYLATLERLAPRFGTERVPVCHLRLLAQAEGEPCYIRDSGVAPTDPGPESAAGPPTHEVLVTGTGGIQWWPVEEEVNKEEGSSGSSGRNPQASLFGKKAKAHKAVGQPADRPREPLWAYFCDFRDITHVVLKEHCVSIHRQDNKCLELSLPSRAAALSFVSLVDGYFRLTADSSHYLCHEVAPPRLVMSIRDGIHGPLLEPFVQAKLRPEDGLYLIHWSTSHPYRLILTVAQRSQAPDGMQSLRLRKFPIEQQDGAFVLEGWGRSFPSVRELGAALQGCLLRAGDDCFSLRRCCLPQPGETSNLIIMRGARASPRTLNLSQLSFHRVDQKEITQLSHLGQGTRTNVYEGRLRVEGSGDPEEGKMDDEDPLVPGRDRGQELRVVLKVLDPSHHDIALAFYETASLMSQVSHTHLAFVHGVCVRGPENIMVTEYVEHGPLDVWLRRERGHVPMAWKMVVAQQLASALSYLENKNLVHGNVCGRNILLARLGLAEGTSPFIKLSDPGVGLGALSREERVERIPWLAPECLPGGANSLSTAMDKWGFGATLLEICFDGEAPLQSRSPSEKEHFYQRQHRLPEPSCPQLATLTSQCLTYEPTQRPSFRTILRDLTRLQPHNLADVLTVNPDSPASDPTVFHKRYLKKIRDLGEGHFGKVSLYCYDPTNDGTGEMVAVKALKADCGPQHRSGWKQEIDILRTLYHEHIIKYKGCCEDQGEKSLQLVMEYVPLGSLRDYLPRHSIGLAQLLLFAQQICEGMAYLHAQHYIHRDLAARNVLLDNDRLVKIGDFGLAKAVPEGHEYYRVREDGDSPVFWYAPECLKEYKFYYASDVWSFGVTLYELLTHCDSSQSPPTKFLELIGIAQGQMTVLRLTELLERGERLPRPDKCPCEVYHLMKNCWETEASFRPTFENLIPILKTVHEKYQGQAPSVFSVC"}, "source": "patent US20260098017A1", "about": "“NOVEL AROMATIC RING DERIVATIVE CONTAINING AMIDE SUBSTITUTION AND USE THEREOF” (TIANJIN PHARMACEUTICAL BIOTECHNOLOGY CO., LTD., priority 2022, published 2026)", "target": "Ba/F3 cell line expressing TYK2 (Homo sapiens, UniProt P29597, cells depend on it, form not given)", "assay": "In vitro cellular inhibition assay (Ba/F3 cell proliferation, CellTiter-Glo)", "conditions": "read-out: IC50"}
{"molecule": "[2H]C([2H])([2H])NC(=O)c1nnc(NC(=O)C2CC2)cc1Nc1cccc(C(=O)Nc2ccc(F)cn2)c1OC", "values": [{"measurement": "GI50", "value": "5 to 10", "unit": "nM"}]}
{"molecule": "[2H]C([2H])([2H])NC(=O)c1cnc(NC(=O)C2CC2)cc1Nc1cccc(C(=O)Nc2ccc(C)nc2)c1OC", "values": [{"measurement": "GI50", "value": "5 to 10", "unit": "nM"}]}
